In ChEMBL document CHEMBL3886656, “1,3-dioxanomorphides and 1,3-dioxanocodides” (2016):

Molecular target: Kappa-type opioid receptor (Homo sapiens, UniProt P41145)

With `CC(C)(C)[C@@]1(C)OCO[C@]23CC[C@@]4(C[C@@H]21)[C@H]1Cc2ccc(OCc5ccccc5)c5c2[C@@]4(CCN1CC1CC1)[C@H]3O5` the EC50 was over 20 µM.
